Laboratory results taken from patent US8273774B2, “Phenoxypyridinylamide compounds” (AstraZeneca AB, priority 2008, dated 2012).

Chains of the proteins cited; added tags and fusions are not shown. Residues count along the entry.
UniProt Q07343, 1-564 isoform Q07343-2: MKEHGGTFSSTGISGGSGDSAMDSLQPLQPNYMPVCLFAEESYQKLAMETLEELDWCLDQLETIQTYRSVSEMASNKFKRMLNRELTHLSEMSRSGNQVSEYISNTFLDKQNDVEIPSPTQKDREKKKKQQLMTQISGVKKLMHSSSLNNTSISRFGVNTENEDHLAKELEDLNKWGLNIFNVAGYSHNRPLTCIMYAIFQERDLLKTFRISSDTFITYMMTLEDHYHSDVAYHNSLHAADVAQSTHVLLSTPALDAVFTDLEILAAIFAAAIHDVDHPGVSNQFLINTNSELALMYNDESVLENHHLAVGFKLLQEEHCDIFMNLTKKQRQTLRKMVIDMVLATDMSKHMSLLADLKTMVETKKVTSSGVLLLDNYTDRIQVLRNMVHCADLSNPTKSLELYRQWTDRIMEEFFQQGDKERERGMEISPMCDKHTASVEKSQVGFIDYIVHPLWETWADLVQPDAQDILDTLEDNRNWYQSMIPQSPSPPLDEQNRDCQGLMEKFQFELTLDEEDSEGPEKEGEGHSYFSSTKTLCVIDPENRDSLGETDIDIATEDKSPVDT

Target: recombinant Human Phosphodiesterase B2 (PDE4B2) (Homo sapiens, UniProt Q07343)
Assay: Human Phosphodiesterase B2 Radiometric Assay
Format: biochemical
Conditions: 0.1 μg/mL recombinant PDE4B2; preincubated at 30 C for 30 min; [3H]cyclic AMP 8 nM, stopped after 20 min; yttrium silicate SPA beads; read-out: PDE4B2 pIC50 (converted)
Protocol: Human Phosphodiesterase B2 Radiometric Assay
The assay uses recombinant Human Phosphodiesterase B2 (PDE4B2) produced in house (PrAZL0163), stored at −20° C. This assay is based on the observation that 5′AMP, the product of the reaction catalysed by PDE4, binds preferentially to yttrium silicate SPA beads (Amersham Biosciences, UK) compared to the substrate, cAMP. Compounds at the appropriate concentration were preincubated at 30 C for 30 min with an assay buffer containing 50 mM HEPES (pH 7.5), 8.3 mM MgCl2, 1.7 mM EGTA, 0.01% (w/v) Brij®35 and 0.1 μg/mL recombinant PDE4B2. The reaction was started by the addition of [3H]cyclic AMP to give a final concentration of 8 nM, and was stopped 20 min after the addition of the substrate by the addition of yttrium silicate SPA beads containing 18 mM Zn SO4. Bound […] was measured using a Topcount NXT (Packard Bioscience, UK). pIC50 values (presented in Table 2) were determined using Xlfit3 curve fitting, using model 205.

Compound | IC50 [nM]
Cc1ccc(O)c(C(=O)N[C@H]2CC[C@@H](NC(=O)c3cc(F)cnc3Oc3cccc(-c4ccc(CN5C[C@@H](C)N[C@@H](C)C5)cc4CN4CCOCC4)c3)CC2)c1 [Example 145, 2-(4′-(((3S,5R)-3,5-dimethylpiperazin-1-yl)methyl)-2′-(morpholinomethyl)biphenyl-3-yloxy)-5-fluoro-N-((1s,4s)-4-(2-hydroxy-5-methylbenzamido)cyclohexyl)nicotinamide] | 0.02
Cc1cc(C(=O)N[C@H]2CC[C@@H](NC(=O)c3cc(F)cnc3Oc3cccc(-c4ccc(O)cc4CN4CCOCC4)c3)CC2)nn1C [Example 2, N-((1s,4s)-4-(1,5-dimethyl-1H-pyrazole-3-carboxamido)cyclohexyl)-5-fluoro-2-(4′-hydroxy-2′-(morpholinomethyl)biphenyl-3-yloxy)nicotinamide] | 0.0158
O=C(N[C@H]1CC[C@@H](NC(=O)c2ncccc2O)CC1)c1cc(F)cnc1Oc1cccc(-c2ccc(O)cc2CN2CCOCC2)c1 [Example 35, N-((1s,4s)-4-(5-fluoro-2-(4′-hydroxy-2′-(morpholinomethyl)biphenyl-3-yloxy)nicotinamido)cyclohexyl)-3-hydroxypicolinamide] | 0.126

Continued, values first:

IC50 [nM] | Compound
0.0316 | Cc1cc(C(=O)N[C@H]2CC[C@@H](NC(=O)c3cc(F)cnc3Oc3cccc(-c4cc(O)cc(CN5C[C@@H](C)N[C@@H](C)C5)c4)c3)CC2)nn1C [Example 66, N-((1s,4s)-4-(1,5-dimethyl-1H-pyrazole-3-carboxamido)cyclohexyl)-2-(3′-(((3R,5S)-3,5-dimethylpiperazin-1-yl)methyl)-5′-hydroxybiphenyl-3-yloxy)-5-fluoronicotinamide]
0.398 | Cc1nc(C(=O)N[C@H]2CC[C@@H](NC(=O)c3cc(F)cnc3Oc3cccc(-c4ccc(CN(C)C)cc4)c3)CC2)cs1 [Example 53, N-((1s,4s)-4-(2-(4′-((dimethylamino)methyl)biphenyl-3-yloxy)-5-fluoronicotinamido)cyclohexyl)-2-methylthiazole-4-carboxamide]
0.02 | Cc1cc(C(=O)N[C@H]2CC[C@@H](NC(=O)c3cc(F)cnc3Oc3cccc(-c4ccc(O)c(CN5C[C@@H](C)N[C@@H](C)C5)c4)c3)CC2)nn1C [Example 61, N-((1s,4s)-4-(1,5-dimethyl-1H-pyrazole-3-carboxamido)cyclohexyl)-2-(3′-(((3S,5R)-3,5-dimethylpiperazin-1-yl)methyl)-4′-hydroxybiphenyl-3-yloxy)-5-fluoronicotinamide]
